{
  "sequences": {"note": "The chains behind the UniProt entries cited, without tags or fusion partners.", "UniProt P11712, whole entry": "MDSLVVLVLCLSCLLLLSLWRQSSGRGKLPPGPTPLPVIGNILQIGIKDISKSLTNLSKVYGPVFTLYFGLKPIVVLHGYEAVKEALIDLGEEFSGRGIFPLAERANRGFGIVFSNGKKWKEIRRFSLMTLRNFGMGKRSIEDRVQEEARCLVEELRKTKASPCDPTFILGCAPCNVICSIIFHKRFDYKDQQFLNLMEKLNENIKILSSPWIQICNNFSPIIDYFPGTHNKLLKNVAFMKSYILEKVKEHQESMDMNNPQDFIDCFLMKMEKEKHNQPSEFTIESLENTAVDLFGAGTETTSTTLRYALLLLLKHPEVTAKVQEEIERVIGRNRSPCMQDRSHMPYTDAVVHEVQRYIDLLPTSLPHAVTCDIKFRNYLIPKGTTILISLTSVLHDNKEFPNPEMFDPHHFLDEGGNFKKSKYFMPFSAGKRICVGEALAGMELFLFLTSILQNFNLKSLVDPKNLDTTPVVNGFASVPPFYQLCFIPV"},
  "source": "PubChem BioAssay AID1024",
  "about": "(Sanford-Burnham Center for Chemical Genomics, 2008)",
  "note": "The list shows a part of the results, in another mix than the full data. Some tests of the compounds listed are not included; inactive here does not mean inactive elsewhere. Activity calls are given as the source filed them.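 Rule for the calls: active = activation factor of 2 or more for CYP2C9 at a 5 µM dose; inactive = the rest.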",
  "data": [
    {"biological_target": "Cytochrome P450 2C9 (Homo sapiens) (UniProt P11712)", "assay": "human CYP2C9 activators, primary screen, biochemical, luminescence (AID 1024);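 note: 0 = sulfaphenazole-blocked wells and 1 = vehicle-only wells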", "conditions": "recombinant CYP2C9, luciferin-H conversion, at 5 µM, stronger effect = higher value, factor 1 = untreated enzyme, 0 = blocked", "values": [
      {"smiles": "CC(C)N1C(=O)CC2(CCN(CCOC(=O)C(O)(c3ccccc3)c3ccccc3)CC2)C1=O", "activation factor": "inactive: 1.1"},
      {"smiles": "O=C(OC1CN2CCC1CC2)C(CO)(c1ccccc1)c1ccccc1", "note": "(stereo not drawn)", "activation factor": "inactive: 0.9"},
      {"smiles": "CN(C)c1cccc(C(=O)NCC2(N(C)C)CCCCC2)c1", "activation factor": "inactive: 1.1"}
    ]}
  ]
}
